According to PubChem BioAssay AID1663 (Broad Institute, 2009):
Only a part is listed here, and it is no random draw. Some structures show a salt or complex split into parts, the way the source records it. Activity calls are given as the source filed them.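 How the source made its calls: active means mean replicate score, as percent of positive control, at or above 50; inconclusive means mean below 50 but at least one replicate at or above 50; inactive means mean and every replicate below 50.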

assay: blockers of SFLLRN-triggered platelet ATP release – cell-based, MLPCN, human platelets, primary screen (AID 1663); settings: human platelet-rich plasma, SFLLRN dense granule ATP release, luminescence; hits give high values;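 compounds screened at 7.5 µM in platelet-rich plasma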

Row | SMILES | inhibition
1 | O=[N+]([O-])c1cc([N+](=O)[O-])c(Nc2nnnn2CCO)c([N+](=O)[O-])c1 | inactive: 1.54%
2 | CCOC(=O)C(CC)C1=NC(C)(C)Cc2ccccc21.O=[N+]([O-])c1cc([N+](=O)[O-])c(O)c([N+](=O)[O-])c1 (stereo not drawn) | inactive: -1.59%
3 | CN1CCCCC1COC(=O)C1(O)c2ccccc2CCc2ccccc21 (stereo not drawn) | inactive: -6.84%
4 | COc1ccccc1OP(C)(=O)Nc1c(C)cccc1C (stereo not drawn) | inactive: 1.04%
5 | CP(=O)(Nc1ccc(SC(F)(F)F)cc1)Oc1ccccc1 (stereo not drawn) | inactive: -4.86%
6 | CCCOc1ccc(NP(C)(=O)Oc2ccc(Cl)cc2)cc1 (stereo not drawn) | inactive: 1.41%
7 | O=[N+]([O-])c1cc([N+](=O)[O-])c(-n2nnc3ccccc32)c([N+](=O)[O-])c1 | inactive: 0.323%
8 | O=[N+]([O-])c1cc([N+](=O)[O-])c(-c2cnn(-c3ccccc3)c2)c([N+](=O)[O-])c1 | inactive: -15%
9 | COc1ccccc1OP(C)(=O)Nc1cccc(Br)c1 (stereo not drawn) | inactive: -4.18%
10 | Cc1cc(C)cc(OP(C)(=O)Nc2ccc(C)cc2C)c1 (stereo not drawn) | inactive: -0.699%
11 | CCOC(=O)c1ccc(NP(C)(=O)Oc2cc(C)cc(C)c2)cc1 (stereo not drawn) | inactive: -0.465%
12 | CP(=O)(Nc1cccc(Br)c1)Oc1ccccc1 (stereo not drawn) | inactive: 1.04%
13 | Cc1cc(C)cc(OP(C)(=O)Nc2ccccn2)c1 (stereo not drawn) | inactive: -7.47%
14 | Cc1ccc(C)c(NP(C)(=O)Oc2ccccc2)c1 (stereo not drawn) | inactive: 3.88%
15 | O=C(O)c1cccc(Nc2c([N+](=O)[O-])cc([N+](=O)[O-])cc2[N+](=O)[O-])c1 | inactive: 0.341%
16 | CC1=NCCc2c1[nH]c1ccccc21.O=[N+]([O-])c1cc([N+](=O)[O-])c(O)c([N+](=O)[O-])c1 | inactive: -3.3%
17 | O=[N+]([O-])c1cc([N+](=O)[O-])c(Nc2cccnc2)c([N+](=O)[O-])c1 | inactive: 10.7%
18 | CC(C)(C)c1ccc(OP(C)(=O)Nc2ccc(SC(F)(F)F)cc2)cc1 (stereo not drawn) | inactive: -11.2%
19 | Cc1cccc(C)c1OP(C)(N)=O (stereo not drawn) | inactive: 1.29%
20 | O=[N+]([O-])c1ccc2c(c1)C=Nc1ccccc1O2 | inactive: 1.91%
21 | CCOC(=O)c1ccc(NP(C)(=O)Oc2ccccc2)cc1 (stereo not drawn) | inactive: -0.729%
22 | COc1ccccc1OP(C)(=O)Nc1ccc(C)cc1 (stereo not drawn) | inactive: -3.71%

Row | SMILES | inhibition
23 | Cc1ccc(NP(C)(=O)Oc2ccccc2)c(C)c1 (stereo not drawn) | inactive: 1.9%
24 | COc1ccccc1OP(C)(=O)Nc1cc(Cl)ccc1C (stereo not drawn) | inactive: -2.04%
25 | COc1ccc(OP(C)(=O)Nc2cccc(F)c2)cc1 (stereo not drawn) | inactive: 15.9%
26 | Cc1cc(C)cc(OP(C)(N)=O)c1 (stereo not drawn) | inactive: 0.782%
27 | CCN(CC)CCCOC(=O)C(O)(c1ccccc1)c1ccccc1 | inactive: 5.67%
28 | CP(=O)(Nc1ccc(SC(F)(F)F)cc1)Oc1ccc(Cl)cc1 (stereo not drawn) | inactive: 1.33%
29 | Cc1cccc(C)c1OP(C)(=O)Nc1ccc(SC(F)(F)F)cc1 (stereo not drawn) | inactive: -2.4%
30 | CP(=O)(Oc1ccccc1)OC(c1ccccc1)C(F)(F)F (stereo not drawn) | inactive: 9.42%
31 | CCc1ccc(OP(C)(=O)N2CCN(c3ccc([N+](=O)[O-])cc3)CC2)cc1 (stereo not drawn) | inactive: -1.25%
32 | CP(=O)(NC(=O)Nc1ccccc1)Oc1ccccc1 (stereo not drawn) | inactive: 1.36%
33 | Cc1cc(C)cc(OP(C)(=O)Nc2ccc(SC(F)(F)F)cc2)c1 (stereo not drawn) | inactive: -0.354%
34 | CCOP(C)(=S)SCC(=O)NC(C)C(=O)O (stereo not drawn) | inactive: 6.63%
35 | O=[N+]([O-])c1cc([N+](=O)[O-])c(O)c([N+](=O)[O-])c1.c1ccc(Oc2ccncc2)cc1 | inactive: 6.34%
36 | CCOC(=O)c1ccc(NP(C)(=O)Oc2ccc(OC)cc2)cc1 (stereo not drawn) | inactive: 1.77%
37 | CP(=O)(Nc1ccccn1)Oc1ccc(Cl)cc1 (stereo not drawn) | inactive: -3.33%
38 | CP(=S)(Nn1cnnc1)Oc1ccccc1 (stereo not drawn) | inactive: 5.63%
39 | COc1ccccc1OP(C)(=O)Nc1ccccc1 (stereo not drawn) | inactive: -15.6%
40 | CP(=O)(Nc1ccccc1Br)Oc1ccccc1 (stereo not drawn) | inactive: 0.82%
41 | Nc1ccc2c(ccc3cccnc32)n1.O=[N+]([O-])c1cc([N+](=O)[O-])c(O)c([N+](=O)[O-])c1 | inactive: -5.55%
42 | CP(=O)(OC12CC3CC(CC(C3)C1)C2)OC12CC3CC(CC(C3)C1)C2 | inactive: 1.09%
43 | CCOC(=O)c1ccc(NP(C)(=O)Oc2ccc(Cl)cc2)cc1 (stereo not drawn) | inactive: -5.47%
44 | CCN(CC)CC(O)COC(=O)C(O)(c1ccccc1)C1CCCCC1 (stereo not drawn) | inactive: 1.38%

Row | SMILES | inhibition
45 | COc1ccc(OP(C)(=O)Nc2ccc(Br)cc2)cc1 (stereo not drawn) | inactive: -1.68%
46 | CP(=O)(Oc1ccccc1)N1CCOC1=O (stereo not drawn) | inactive: 10.9%
47 | CCc1ccc(OP(C)(=O)Nc2cccnc2)cc1 (stereo not drawn) | inactive: -27.1%
48 | COc1ccccc1OP(C)(=O)Nc1c(C)n(C)n(-c2ccccc2)c1=O (stereo not drawn) | inactive: 2.77%
49 | O=C(OCCCN1CCCC1)C(O)(c1ccccc1)C1CCCCC1 (stereo not drawn) | inactive: 3.78%
50 | CP(=O)(Nc1ccc(Cl)cc1)Oc1ccc(F)cc1 (stereo not drawn) | inactive: -1.42%
51 | CC(C)(C)c1ccc(OP(C)(=O)O)cc1 | inactive: 4.23%
52 | COc1ccccc1OP(C)(=O)Nc1ccccc1Br (stereo not drawn) | inactive: 3.68%
53 | CN(C)C(=O)c1c([N+](=O)[O-])cc([N+](=O)[O-])cc1[N+](=O)[O-] | inactive: 6.06%
54 | COc1ccccc1OP(C)(=O)Nc1ccc(Br)cc1 (stereo not drawn) | inactive: -3.9%
55 | CN(C)CCOC(=O)C(O)(c1ccccc1)C1CCCC1 (stereo not drawn) | inactive: 1.12%
56 | COc1ccc(OP(C)(=O)Nc2ccccn2)cc1 (stereo not drawn) | inactive: -12.5%
57 | O=[N+]([O-])c1cc([N+](=O)[O-])c(Nc2ccccn2)c([N+](=O)[O-])c1 | inactive: -4.58%
58 | Cc1c(NP(C)(=O)Oc2ccc(C(C)C)cc2)c(=O)n(-c2ccccc2)n1C (stereo not drawn) | inactive: 0.442%
59 | CCc1ccc(OP(C)(=O)O)cc1 | inactive: 20.8%
60 | CP(=O)(Nc1ccccn1)Oc1ccccc1 (stereo not drawn) | inactive: 0.688%
61 | COc1ccccc1OP(C)(=O)Nc1ccc(C)cc1C (stereo not drawn) | inactive: 8.82%
62 | Cc1cc(C)cc(OP(C)(=O)Nc2cccc(C(F)(F)F)c2)c1 (stereo not drawn) | inactive: 1.75%
63 | COc1ccc(OP(C)(=O)Nc2ccccc2Br)cc1 (stereo not drawn) | inactive: -12.2%
64 | COc1ccccc1OP(C)(=O)Nc1ccc(C)c(C)c1 (stereo not drawn) | inactive: 5.3%
65 | Cc1nc2ccc3ccccc3c2o1.O=[N+]([O-])c1cc([N+](=O)[O-])c(O)c([N+](=O)[O-])c1 | inactive: -6.4%
66 | CP(=O)(OCCOc1ccccc1)OCCOc1ccccc1 | inactive: 3.96%

Row | SMILES | inhibition
67 | CP(=O)(Nc1ccc(Cl)cc1Cl)Oc1ccccc1 (stereo not drawn) | inactive: 0.251%
68 | COc1ccc(OP(C)(=O)Nc2ccc(SC(F)(F)F)cc2)cc1 (stereo not drawn) | inactive: -4.46%
69 | CCOC(=O)c1ccc(NP(C)(=O)Oc2ccc(F)cc2)cc1 (stereo not drawn) | inactive: 8.8%
70 | CCN(CC)CCCOC(=O)C(O)(c1ccccc1)C1CCCCC1 (stereo not drawn) | inactive: 0.784%
71 | O=[N+]([O-])c1cc([N+](=O)[O-])c(OC2CCCCC2O)c([N+](=O)[O-])c1 (stereo not drawn) | inactive: -2.14%
72 | CCCCCOc1ccc(NP(C)(=O)Oc2ccc(Cl)cc2Cl)cc1 (stereo not drawn) | inactive: 2.49%
73 | CP(=O)(Nc1ccccc1)Oc1ccc(F)cc1 (stereo not drawn) | inactive: 13.2%
74 | CC(C)c1ccc(OP(C)(=O)Nc2ccc(SC(F)(F)F)cc2)cc1 (stereo not drawn) | inactive: 19.6%
75 | CP(=O)(Nc1ccccc1F)Oc1ccccc1 (stereo not drawn) | inactive: 6.98%
76 | O=C(OCCN1CCN(CCOCc2ccccc2)CC1)C(O)(c1ccccc1)c1ccccc1 | inactive: -16.3%
77 | O=C(OC1CN2CCC1CC2)c1ccc([N+](=O)[O-])cc1 (stereo not drawn) | inactive: -8.29%
78 | COc1ccc2c(c1O)-c1c(O)c(OC)cc3c1[C@H](C2)[N+](C)(C)CC3.O=[N+]([O-])c1cc([N+](=O)[O-])c([O-])c([N+](=O)[O-])c1[O-] | inactive: -0.406%
79 | CP(=O)(Nc1ccc(SC(F)(F)F)cc1)Oc1ccc(F)cc1 (stereo not drawn) | inactive: -11.7%
80 | CCOP(C)(=S)SCC(=O)NC(C)(CC)C(=O)O (stereo not drawn) | inactive: -1.79%
81 | CP(=O)(Nc1ccc2c(c1)OCCO2)Oc1ccccc1 (stereo not drawn) | inactive: -0.484%
82 | Cc1ccccc1NP(C)(=O)Nc1ccccc1C | inactive: -9.39%
83 | COc1ccc(OP(C)(=O)Nc2cccc(Br)c2)cc1 (stereo not drawn) | inactive: -2.42%
84 | COc1ccc(NP(C)(=O)Oc2ccccc2OC)cc1 (stereo not drawn) | inactive: -0.16%
85 | CN(C)CCOC(=O)C(O)(c1ccccc1)C1CCCCC1 (stereo not drawn) | inactive: 0.466%
86 | Cc1cc(-c2cccc3ccccc23)c(C)cn1.O=[N+]([O-])c1cc([N+](=O)[O-])c(O)c([N+](=O)[O-])c1 | inactive: 4.35%
87 | O=[N+]([O-])c1cc([N+](=O)[O-])c(NCC2CCS(=O)(=O)C2)c([N+](=O)[O-])c1 (stereo not drawn) | inactive: -2.98%
88 | O=[N+]([O-])c1ccc(OP2(=O)COCCO2)cc1 (stereo not drawn) | inactive: 2.9%
